Experimental data taken from ChEMBL document CHEMBL1154682, “Discovery of novel benzoxazinones as potent and orally active long chain fatty acid elongase 6 inhibitors” (J Med Chem, 2009).
pIC50: −log10 of the molar value.

Target: T1, Very long chain fatty acid elongase 6 (Mus musculus, UniProt Q920L5)
T1 sequence (Q920L5 whole entry): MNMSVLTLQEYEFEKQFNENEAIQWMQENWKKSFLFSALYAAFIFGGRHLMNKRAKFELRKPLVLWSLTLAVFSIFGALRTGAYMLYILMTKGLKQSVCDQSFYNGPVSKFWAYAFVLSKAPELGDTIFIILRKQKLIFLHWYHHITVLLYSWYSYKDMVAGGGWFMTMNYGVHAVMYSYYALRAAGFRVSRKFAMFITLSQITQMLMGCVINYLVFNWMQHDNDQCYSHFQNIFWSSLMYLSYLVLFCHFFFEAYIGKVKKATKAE
Assay: Inhibition of ELOVL6 in mouse H2.35 cells assessed as elongation index
Assay type: cell-based
Method in brief: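 Subconfluent mouse hepatoma H2.35 cells were kept at 33 °C in DMEM with 200 nM dexamethasone and 4% FBS. Cells were preincubated with compound 60 min, then labelled with [1-14C]palmitic acid (0.8 μCi/mL final) for 4 h. Lipids were hydrolysed in NaOH at 70 °C, and fatty acids extracted and quantified by radio-HPLC. Elongation index = (C18:0 + C18:1) / (C16:0 + C16:1).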

pIC50: 6.88
SMILES: O=C1Nc2ccc(Cl)cc2C(CNC(=O)c2ccc(F)cc2)(C(F)(F)F)O1 (stereo unspecified)
